# Data from patent publication US5409692A, “Glucosyltransferase inhibitors, as well as dental caries prevention methods and anticarious foods using the same” (priority 1990, dated 1995).
# Test system: glucosyltransferase
# Assay: Glucosyltransferase inhibition activity (insoluble glucan, absorbance at 550 nm)
# Format: biochemical, S. mutans MT8148
# Settings: 0.15 ml of 2,000 ppm sample solution in 3 ml total volume; pH 6.0, 37° C., 3 hours; control water
# Description: As an enzyme solution, was used an extract which was obtained by culturing S. mutans MT8148 strain on Todd-Hewitt medium and then extracting hyphae with 8M urea in accordance with the method proposed by Hamada et al. [S. Hamada et al., J. Gen. Microbiol., 35, 335- 344 (1999 )].
# A reaction system was prepared by adding 0.15 ml of an aqueous solution of a sample, said solution having been prepared to contain the sample at the concentration of 2,000 ppm, the enzyme solution prepared from the S. mutans strain and water to 0.6 ml of 500 mM sodium phosphate buffer which had pH 6.0 and contained 5% of sucrose, 0.5% of dextran T10 and 0.5% of sodium azide. The water was added in an amount to give a total volume of 3 ml. They were reacted in a glass test tube. In the above measurement, the amount of the enzyme was set such that the absorbance at 550 nm became about 1.0 when reacted at 37° C. for 3 hours.
# Resultant insoluble glucan was subjected to ultrasonic disintegration and the; absorbance (A) at 550 nm was measured. Using as control (B) the absorbance obtained from the use of water in place of the sample solution, the inhibition rate (%) was determined in accordance with the following calculation formula: [formula] (Measurement results ) […]
smiles,measurement,value
O=C(O[C@@H]1Cc2c(O)cc(O)cc2O[C@@H]1c1cc(O)c(O)c(O)c1)c1cc(O)c(O)c(O)c1 [Epigallocatechin gallate],"Inhibition rate, %",17%
